The values below come from patent US9493435B2, “IRE-1α inhibitors” (MannKing Corporation, priority 2009, dated 2016).

Chains of the proteins cited; added tags and fusions are not shown. Residues count along the entry.
UniProt O75460, 19-977 limits assumed: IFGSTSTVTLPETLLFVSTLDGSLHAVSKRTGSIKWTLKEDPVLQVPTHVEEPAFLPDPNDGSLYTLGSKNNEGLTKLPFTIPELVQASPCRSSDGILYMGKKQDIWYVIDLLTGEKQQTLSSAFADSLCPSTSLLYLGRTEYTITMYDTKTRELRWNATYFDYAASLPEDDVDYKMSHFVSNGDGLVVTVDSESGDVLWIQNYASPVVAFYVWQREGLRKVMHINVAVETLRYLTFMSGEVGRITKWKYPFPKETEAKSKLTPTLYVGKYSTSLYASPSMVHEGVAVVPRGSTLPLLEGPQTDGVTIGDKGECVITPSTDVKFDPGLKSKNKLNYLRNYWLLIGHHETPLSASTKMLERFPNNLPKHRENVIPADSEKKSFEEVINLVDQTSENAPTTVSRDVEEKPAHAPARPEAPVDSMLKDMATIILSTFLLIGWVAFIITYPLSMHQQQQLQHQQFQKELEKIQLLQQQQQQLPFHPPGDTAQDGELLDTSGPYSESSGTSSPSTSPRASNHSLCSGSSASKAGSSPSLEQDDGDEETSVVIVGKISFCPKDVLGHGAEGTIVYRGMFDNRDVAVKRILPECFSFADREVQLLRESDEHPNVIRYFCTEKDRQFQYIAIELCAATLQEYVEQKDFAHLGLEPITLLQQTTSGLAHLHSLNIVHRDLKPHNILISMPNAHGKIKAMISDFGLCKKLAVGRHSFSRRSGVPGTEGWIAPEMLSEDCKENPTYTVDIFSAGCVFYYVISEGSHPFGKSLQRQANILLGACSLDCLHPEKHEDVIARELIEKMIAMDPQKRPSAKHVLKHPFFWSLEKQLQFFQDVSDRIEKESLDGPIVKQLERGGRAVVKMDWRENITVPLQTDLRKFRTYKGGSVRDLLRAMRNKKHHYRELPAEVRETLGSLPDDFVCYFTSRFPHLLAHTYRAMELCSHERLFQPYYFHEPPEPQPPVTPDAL

In assay [1] the target is human IRE-1α (GST-IRE-1α) (Homo sapiens (Human), UniProt O75460). Description: IRE-1α assay (cleavage of mini-XBP-1 mRNA stem-loop substrate). Type of assay: biochemical. To be noted: read-out: IC50_av, average IC50 for inhibition of IRE-1α in vitro.
Assay [2] has as its system IRE-1α-mediated XBP-1 splicing in human myeloma MM.1s cells. The experiment in a line: Cellular XBP-1 splicing assay in myeloma cells (RT-PCR). To be noted: read-out: EC50_av, average EC50, endogenous XBP-1 splicing in myeloma cells, DTT stress.

Molecules are shown by their SMILES. Read-outs that look alike come from different tables or passages of the source. Where only a bound is given, the exact number is not on record here.

For `O=Cc1c(O)ccc2ccc(-c3cncnc3)cc12`, the IC50 in assay [1] was less than 1000 nM. Moreover, in assay [2], the EC50 came to 10 µM.
As to `O=Cc1c(O)ccc2ccc(OCC(=O)NN3CCOCC3)cc12`, in assay [2], the EC50 was greater than 10 µM.
The same measure, in the same setting: as for `O=Cc1c(O)ccc2ccc(OCC(=O)N3CCOCC3)cc12`, the figure is greater than 10 µM; as for `CN1CCN(C(=O)c2ccc(Oc3ccc4c(C=O)c(O)ccc4c3)cc2)CC1`, less than 10 µM.
Turning to `O=Cc1c(O)ccc2cc(-c3ccc(C(=O)NC4CCCNC4)o3)ccc12` (stereo not shown) [Compound 171], in assay [1] (tested form: HCl), the IC50 was less than 1000 nM. For the same compound, the EC50 in assay [2] (tested form: HCl) was less than 10 µM.
Turning to `Cc1cc(C(=O)O)sc1-c1ccc2c(C=O)c(O)ccc2c1`, the IC50 in assay [1] was found to be 100 nM. The EC50 in assay [2] was less than 10 µM.
Consider `CN1CCN(CC(=O)NC2CCN(c3ccc4c(C=O)c(O)ccc4c3)C2)CC1` (stereo not shown), for which, in assay [2], the EC50 was greater than 10 µM.
For the compound `O=Cc1c(O)ccc2cc(-c3cc(C(=O)O)ccc3Cl)ccc12`, the IC50 in assay [1] was less than 100 nM.
Take `O=Cc1c(O)ccc2cc(OCC(=O)N3CCOCC3)ccc12`: in assay [2], the EC50 was greater than 10 µM.
Regarding `CN1CCN(C(=O)c2ccnc(-c3ccc4c(C=O)c(O)ccc4c3)c2)CC1`, the IC50 in assay [1] was less than 1000 nM. Also, the EC50 in assay [2] is less than 10 µM.
With `CN1CCN(c2ccc(-c3ccc4ccc(O)c(C=O)c4c3)cc2)CC1`, in assay [1], the IC50 is greater than 1000 nM. Moreover, in assay [2], the EC50 is less than 10 µM.
In the case of `CN1CCN(C(=O)COc2ccc3ccc(O)c(C=O)c3c2)CC1`, the EC50 in assay [2] is greater than 10 µM.
As for `O=Cc1c(O)ccc2cc(-c3ccc(C(=O)N4CCOCC4)nc3)ccc12`, the IC50 in assay [1] was less than 1000 nM. In addition, in assay [2], the EC50 is less than 10 µM.
With `CN(C)CCNC(=O)COc1ccc2ccc(O)c(C=O)c2c1`, the EC50 in assay [2] is greater than 10 µM.
Same read-out and setting: as for `CN1CCC(NC(=O)COc2ccc3ccc(O)c(C=O)c3c2)CC1`, the figure is greater than 10 µM.
As for `O=Cc1c(O)ccc2cc(-c3ccc(C(=O)O)cc3Cl)ccc12`, in assay [1], the IC50 is less than 1000 nM.
